Experimental findings from article PMC8800018, “Discovery of novel selective PI3Kγ inhibitors through combining machine learning-based virtual screening with multiple protein structures and bio-evaluation” (Journal of Advanced Research, 2021) are described below.

Protein sequences, listed by entry. Tags and fused reporters are not part of them. Lines headed by an entry give the natural chain unless they say otherwise; changes in a name come on top.
UniProt P42338: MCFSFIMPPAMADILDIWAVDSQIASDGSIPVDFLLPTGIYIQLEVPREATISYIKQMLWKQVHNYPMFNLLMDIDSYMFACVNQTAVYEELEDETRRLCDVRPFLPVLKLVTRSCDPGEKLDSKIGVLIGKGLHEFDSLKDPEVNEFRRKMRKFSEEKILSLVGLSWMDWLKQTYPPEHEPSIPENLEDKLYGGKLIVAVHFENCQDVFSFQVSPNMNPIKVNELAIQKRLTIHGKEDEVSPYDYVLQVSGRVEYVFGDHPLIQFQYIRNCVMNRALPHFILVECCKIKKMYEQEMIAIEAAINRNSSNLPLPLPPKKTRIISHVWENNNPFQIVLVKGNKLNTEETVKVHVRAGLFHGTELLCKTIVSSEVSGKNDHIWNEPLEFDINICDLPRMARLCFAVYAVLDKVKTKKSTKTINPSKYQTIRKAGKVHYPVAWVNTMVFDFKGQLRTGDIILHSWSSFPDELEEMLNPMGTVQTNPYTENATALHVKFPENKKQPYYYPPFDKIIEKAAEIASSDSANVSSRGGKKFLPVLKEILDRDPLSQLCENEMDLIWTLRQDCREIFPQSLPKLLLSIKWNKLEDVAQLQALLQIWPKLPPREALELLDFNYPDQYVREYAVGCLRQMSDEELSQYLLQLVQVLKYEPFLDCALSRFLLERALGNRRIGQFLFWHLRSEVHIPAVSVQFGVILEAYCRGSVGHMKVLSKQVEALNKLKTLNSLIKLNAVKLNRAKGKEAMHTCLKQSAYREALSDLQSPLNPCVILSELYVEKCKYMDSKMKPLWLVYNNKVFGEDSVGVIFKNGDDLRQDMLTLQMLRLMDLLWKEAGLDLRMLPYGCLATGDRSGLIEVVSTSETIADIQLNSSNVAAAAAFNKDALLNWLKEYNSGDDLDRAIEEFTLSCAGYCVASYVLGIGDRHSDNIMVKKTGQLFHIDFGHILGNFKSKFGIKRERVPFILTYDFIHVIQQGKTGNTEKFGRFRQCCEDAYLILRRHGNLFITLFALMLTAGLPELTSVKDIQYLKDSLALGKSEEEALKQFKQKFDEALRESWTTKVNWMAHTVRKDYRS
UniProt P48736: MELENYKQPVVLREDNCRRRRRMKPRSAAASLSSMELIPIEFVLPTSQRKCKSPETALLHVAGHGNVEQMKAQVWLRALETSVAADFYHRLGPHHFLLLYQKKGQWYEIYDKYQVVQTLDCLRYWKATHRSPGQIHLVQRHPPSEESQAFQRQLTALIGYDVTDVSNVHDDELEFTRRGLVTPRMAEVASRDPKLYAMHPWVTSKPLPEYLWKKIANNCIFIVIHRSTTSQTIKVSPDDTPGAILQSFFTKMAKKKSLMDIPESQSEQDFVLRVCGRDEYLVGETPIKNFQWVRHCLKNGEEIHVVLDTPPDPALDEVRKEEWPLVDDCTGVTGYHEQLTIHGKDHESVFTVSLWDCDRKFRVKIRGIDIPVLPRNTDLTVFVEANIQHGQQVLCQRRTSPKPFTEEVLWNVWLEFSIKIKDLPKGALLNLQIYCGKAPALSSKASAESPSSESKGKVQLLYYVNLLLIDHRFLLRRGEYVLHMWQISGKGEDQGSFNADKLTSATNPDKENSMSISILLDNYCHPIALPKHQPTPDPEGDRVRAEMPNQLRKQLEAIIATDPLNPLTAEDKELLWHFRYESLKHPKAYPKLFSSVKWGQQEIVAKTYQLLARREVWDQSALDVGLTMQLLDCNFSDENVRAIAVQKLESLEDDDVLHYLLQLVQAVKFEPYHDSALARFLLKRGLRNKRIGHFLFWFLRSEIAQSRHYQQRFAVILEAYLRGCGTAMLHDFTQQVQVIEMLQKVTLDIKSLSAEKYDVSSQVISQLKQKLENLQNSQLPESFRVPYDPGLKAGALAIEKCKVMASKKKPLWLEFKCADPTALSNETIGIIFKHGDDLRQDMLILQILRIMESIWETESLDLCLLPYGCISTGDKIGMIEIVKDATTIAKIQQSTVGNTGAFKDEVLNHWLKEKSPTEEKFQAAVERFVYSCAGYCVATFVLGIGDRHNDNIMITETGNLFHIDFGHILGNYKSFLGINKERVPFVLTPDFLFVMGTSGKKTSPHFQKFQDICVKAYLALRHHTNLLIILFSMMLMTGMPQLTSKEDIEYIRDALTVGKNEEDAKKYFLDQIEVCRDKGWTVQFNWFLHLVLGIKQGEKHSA

Molecules are shown by their SMILES.

Assay [1] addresses PI3Kβ (Homo sapiens, UniProt P42338). Briefly: ADP-Glo cell-free PI3K kinase activity assay. Background: ADP-Glo first removes unused ATP, then detects ADP through luciferase.
The target in assay [2] is PI3Kγ (Homo sapiens, UniProt P48736). The assay can be described thus: ADP-Glo cell-free PI3K kinase activity assay. The following applies: read-out: Cell-free inhibitory IC50 PI3Kγ; ATP 25 μM; average of triple tests.

In the case of `O=c1cc(N2CCOCC2)oc2c(-c3ccccc3)cccc12` [LY294002, reference compound], the IC50 (in general, the concentration needed to halve the response being measured) is 2.58 µM in assay [1] and 2.98 µM in assay [2].
